# According to patent US9920357B2, “Systems and methods for identifying cosmetic agents for hair/scalp care compositions” (The Procter & Gamble Company, priority 2012, dated 2018):
# Tested on: hair growth
smiles,measurement,setting,value
C#CCN(C)[C@H](C)Cc1ccccc1 [Selegiline],activation of hair growth,alone,activate hair growth alone
same,increase of the hair growth activity of Minoxidil,in combination with Minoxidil,increase the hair growth activity of Minoxidil
